According to BigSolDB 2.1:

For CCCc1nn(C)c2c(=O)[nH]c(-c3cc(S(=O)(=O)N4CCN(C)CC4)ccc3OCC)nc12.O=C(O)CC(O)(CC(=O)O)C(=O)O, which solubility (mole fraction) (in ethylene glycol, 293.2 K) is on record?
The solubility (mole fraction) was 0.00056.

What about the solubility (mole fraction) (in ethylene glycol, 298.2 K) of the same molecule?
Its solubility (mole fraction) is 0.00064.

And the solubility (mole fraction) (in ethylene glycol, 303.2 K)?
Its solubility (mole fraction) is 0.000772.

And the solubility (mole fraction) (in ethylene glycol, 308.2 K)?
The solubility (mole fraction) was 0.000935.

What about the solubility (mole fraction) (in ethylene glycol, 313.2 K) of the same molecule?
The solubility (mole fraction) was 0.00116.

And the solubility (mole fraction) (in n-propanol, 293.2 K)?
Its solubility (mole fraction) is 6.79e-05.

What about the solubility (mole fraction) (in n-propanol, 298.2 K) of the same molecule?
Its solubility (mole fraction) is 8.03e-05.

And the solubility (mole fraction) (in n-propanol, 303.2 K)?
Its solubility (mole fraction) is 0.000108.

What about the solubility (mole fraction) (in n-propanol, 308.2 K) of the same molecule?
Its solubility (mole fraction) is 0.000176.

What about the solubility (mole fraction) (in n-propanol, 313.2 K) of the same molecule?
The solubility (mole fraction) was 0.000297.
